# Source: patent US20250009843A1, “COMPOSITIONS AND METHODS FOR TREATMENTS BY MODULATION OF EXCITABLE TISSUES ACTIVITIES, AND FOR ANTIMICROBIAL APPLICATIONS” (priority 2021, published 2025)
# Test system: DRG cells
substance,measurement,value
Poly-L-arginine hydrochloride [Hydrobloc C01],Toxicity (cytotoxic / toxicity removed),Free large (42.5
